Measurements published in ChEMBL document CHEMBL1649468, “AAC(6')-Iaf, a novel aminoglycoside 6'-N-acetyltransferase from multidrug-resistant Pseudomonas aeruginosa clinical isolates” (2009).

System: Escherichia coli
Settings: JM109

GENTAMICIN gave an MIC of 0.5 µg/mL.
